The values below come from ChEMBL document CHEMBL3853309, “Lovastatin Analogues from the Soil-Derived Fungus Aspergillus sclerotiorum PSU-RSPG178” (J Nat Prod, 2016).

The assay deals with T1, 3-hydroxy-3-methylglutaryl-coenzyme A reductase (Homo sapiens, UniProt P04035).
T1 sequence (P04035 whole entry): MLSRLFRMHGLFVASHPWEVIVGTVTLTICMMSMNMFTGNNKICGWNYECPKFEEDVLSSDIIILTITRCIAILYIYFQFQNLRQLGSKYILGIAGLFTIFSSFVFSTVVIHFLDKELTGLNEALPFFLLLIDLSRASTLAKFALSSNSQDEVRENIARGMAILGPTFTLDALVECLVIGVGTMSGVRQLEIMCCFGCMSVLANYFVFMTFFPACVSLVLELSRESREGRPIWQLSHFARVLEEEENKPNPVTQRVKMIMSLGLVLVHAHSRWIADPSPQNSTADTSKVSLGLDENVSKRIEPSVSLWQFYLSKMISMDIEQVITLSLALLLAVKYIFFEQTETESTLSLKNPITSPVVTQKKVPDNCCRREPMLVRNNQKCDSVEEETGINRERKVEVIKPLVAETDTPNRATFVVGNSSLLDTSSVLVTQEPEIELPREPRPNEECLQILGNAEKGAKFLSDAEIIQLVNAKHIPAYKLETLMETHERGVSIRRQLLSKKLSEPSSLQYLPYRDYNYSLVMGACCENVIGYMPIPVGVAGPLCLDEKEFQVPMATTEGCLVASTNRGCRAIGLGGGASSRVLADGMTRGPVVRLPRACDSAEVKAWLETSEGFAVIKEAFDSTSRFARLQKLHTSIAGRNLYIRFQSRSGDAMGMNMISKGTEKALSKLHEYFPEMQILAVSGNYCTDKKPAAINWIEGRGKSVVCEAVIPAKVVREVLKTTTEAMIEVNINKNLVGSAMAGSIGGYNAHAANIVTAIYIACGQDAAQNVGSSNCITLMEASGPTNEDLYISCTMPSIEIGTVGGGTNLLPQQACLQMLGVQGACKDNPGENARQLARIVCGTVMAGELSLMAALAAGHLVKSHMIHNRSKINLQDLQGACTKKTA
In words: Inhibition of human HMGR catalytic domain using 800 uM HMG-CoA as substrate measured every 20 secs for 10 mins. The method, boiled down: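 Dose-response format of the kit assay: 1× buffer, NADPH, 800 μM HMG-CoA, graded compound concentrations, human HMGR catalytic domain 0.6 μM final added to start at 37 °C. A340 read every 20 s over 10 min; percent inhibition of control used to derive IC50; n = 3.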

By IC50 is commonly meant the concentration that inhibits the measured activity by half. A low value points to greater potency in that assay. On to `CC[C@H](C)C(=O)O[C@H]1C[C@H](O)C=C2C=C[C@H](C)[C@H](CC[C@@H](O)C[C@@H](O)CC(=O)O)[C@H]21` [PRAVASTATIN], for which half-maximal inhibition (IC50) required 0.4 µM.
